According to IntAct's records for PubMed 25525273:

B1: Cerebral cavernous malformations 2 protein (Homo sapiens), Q9BSQ5 (parent)
chain: MEEEGKKGKKPGIVSPFKRVFLKGEKSRDKKAHEKVTERRPLHTVVLSLPERVEPDRLLSDYIEKEVKYLGQLTSIPGYLNPSSRTEILHFIDNAKRAHQLPGHLTQEHDAVLSLSAYNVKLAWRDGEDIILRVPIHDIAAVSYVRDDAAHLVVLKTAQDPGISPSQSLCAESSRGLSAGSLSESAVGPVEACCLVILAAESKVAAEELCCLLGQVFQVVYTESTIDFLDRAIFDGASTPTHHLSLHSDDSSTKVDIKETYEVEASTFCFPESVDVGGASPHSKTISESELSASATELLQDYMLTLRTKLSSQEIQQFAALLHEYRNGASIHEFCINLRQLYGDSRKFLLLGLRPFIPEKDSQHFENFLETIGVKDGRGIITDSFGRHRRALSTTSSSTTNGNRATGSSDDRSAPSEGDEWDRMISDISSDIEALGCSMDQDSA

What was measured:
[1] = variants of: B1; details: with krit1_human KRIT1, O00522
[2] = variants of: B1; details: with krit1_human KRIT1, O00522; remark: listed apart in the source

effect of a mutation on the interaction [1]	effect of a mutation on the interaction [2]	Variant
decreasing interaction strength		MEEEGKKGKKPGIVSPFKRVFLKGEKSRDKKAHEKVTERRPLHTVVLSLPERVEPDRLLSDYIEKEVKYLGQLTSIPGYLNPSSRTEILHFIDNAKRAHQLPGHLTQEHDAVLSLSAYNVKLAWRDGEDIILRVPIHDIAAVSYVRDDAAHLVVLKTAQDPGISPSQSLCAESSRGLSAGSLSESAVGPVEACCLVILAAESKVAAEELCCLLGQVAQVVYTESTIDFLDRAIFDGASTPTHHLSLHSDDSSTKVDIKETYEVEASTFCFPESVDVGGASPHSKTISESELSASATELLQDYMLTLRTKLSSQEIQQFAALLHEYRNGASIHEFCINLRQLYGDSRKFLLLGLRPFIPEKDSQHFENFLETIGVKDGRGIITDSFGRHRRALSTTSSSTTNGNRATGSSDDRSAPSEGDEWDRMISDISSDIEALGCSMDQDSA [F217A]
decreasing interaction strength	disrupting interaction strength	MEEEGKKGKKPGIVSPFKRVFLKGEKSRDKKAHEKVTERRPLHTVVLSLPERVEPDRLLSDYIEKEVKYLGQLTSIPGYLNPSSRTEILHFIDNAKRAHQLPGHLTQEHDAVLSLSAYNVKLAWRDGEDIILRVPIHDIAAVSYVRDDAAHLVVLKTAQDPGISPSQSLCAESSRGLSAGSLSESAVGPVEACCLVILAAESKVAAEELDCLLGQVFQVVYTESTIDFLDRAIFDGASTPTHHLSLHSDDSSTKVDIKETYEVEASTFCFPESVDVGGASPHSKTISESELSASATELLQDYMLTLRTKLSSQEIQQFAALLHEYRNGASIHEFCINLRQLYGDSRKFLLLGLRPFIPEKDSQHFENFLETIGVKDGRGIITDSFGRHRRALSTTSSSTTNGNRATGSSDDRSAPSEGDEWDRMISDISSDIEALGCSMDQDSA [C210D]
decreasing interaction strength	disrupting interaction strength	MEEEGKKGKKPGIVSPFKRVFLKGEKSRDKKAHEKVTERRPLHTVVLSLPERVEPDRLLSDYIEKEVKYLGQLTSIPGYLNPSSRTEILHFIDNAKRAHQLPGHLTQEHDAVLSLSAYNVKLAWRDGEDIILRVPAHDAAAVSYVRDDAAHLVVLKTAQDPGISPSQSLCAESSRGLSAGSLSESAVGPVEACCLVILAAESKVAAEELCCLLGQVFQVVYTESTIDFLDRAIFDGASTPTHHLSLHSDDSSTKVDIKETYEVEASTFCFPESVDVGGASPHSKTISESELSASATELLQDYMLTLRTKLSSQEIQQFAALLHEYRNGASIHEFCINLRQLYGDSRKFLLLGLRPFIPEKDSQHFENFLETIGVKDGRGIITDSFGRHRRALSTTSSSTTNGNRATGSSDDRSAPSEGDEWDRMISDISSDIEALGCSMDQDSA [I136A;I139A]
